Results taken from article PMC3046295 (Journal of autoimmunity, 2011).

Tests used:
DR0403 = DR0403 (Homo sapiens, UniProt P01903+P01911, A100R/A103E/A169T/F76Y/I96L/K127E/L162R/M171V/N62H/P40V/Q125Y/R42H/S133A/S149N/S66Y/V209L/W38E); test: 16-hour direct binding assay of biotinylated reference peptide, DR0403
DR0401 = DR0401 (Homo sapiens, UniProt P01903+P01911, A100K/A169T/F76Y/I96L/K127E/L162R/M171V/N62H/P40V/Q125Y/R42H/S133A/S149N/S66Y/V115G/V209L/W38E); test: 16-hour direct binding assay of biotinylated reference peptide, DR0401

In the case of PKYVKQNTLKLAT [HA306], the “ED50 to bind 0.05 µM DR0403” value (DR0403) is reported as over 15 µM and the “ED50 to bind 0.05 µM DR0401” value (DR0401) is reported as 0.035 µM.
